# Experimental logP (octanol/water) values from OPERA 2.9

Values as listed in the OPERA 2.9 repository of K. Mansouri.

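OPERA's authors assembled the values from existing databases and did not measure them anew. The files give a single number for a compound and property, which may rest on several reports. How each value was measured is not recorded, so precision varies. Where a salt, mixture or single isomer is drawn, the source does not say that exactly this form was tested. Some entries may be limits or estimates that an upstream database listed as plain numbers.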

logP is the log10 of the octanol-water partition coefficient; higher is more lipophilic. Cells with "–" have no entry in this list. "via" names the databases from which the curators took the value.

SMILES	name	logP	via
CC(=O)OCCN(CCOC(C)=O)c1ccc(N=Nc2sc([N+](=O)[O-])cc2[N+](=O)[O-])cc1	–	4.2	eChemPortal
C[C@@H]1C[C@@H](O)CC(C)(C)C1=O	Cyclohexanone, 4-hydroxy-2,2,6-trimethyl-, (4R,6R)-	1.1	eChemPortal
CC1C(C)(C)C2=C(C3OCOCC3CC2)C1(C)C (stereo not given)	–	4.29	eChemPortal
OC(CCCN1CCCCC1)(c1ccccc1)c1ccccc1	Diphenidol	4.3	PubChem
CC(=O)OCC(=O)[C@H]1[C@H](C)C[C@H]2[C@@H]3C[C@H](F)C4=CC(=O)CC[C@]4(C)[C@H]3[C@@H](O)C[C@@]21C	–	2.84	eChemPortal
O=c1oc(-c2ccccc2NS(=O)(=O)c2ccc3ccccc3c2)nc2ccccc12	–	4.49	eChemPortal
CCc1cc(S(=O)(=O)[O-])c2cc(C(C)C)cccc1-2.[Na+]	Egualen sodium	-0.74	OCHEM
CC(C)CNC[C@@H](O)[C@H](Cc1ccccc1)NC(=O)OC(C)(C)C	–	3.9	eChemPortal
C=C(C)C(=O)NCOC	2-Propenamide, N-(methoxymethyl)-2-methyl-	-0.18	eChemPortal
NNC(=O)CCCCCCCCC(=O)NN	Decanedioic acid, 1,10-dihydrazide	-0.315	eChemPortal
O=C(/C=C/c1ccc(O)c(O)c1)N[C@@H](Cc1ccc(O)cc1)C(=O)O	Caffeoyl-N-tyrosine	-2.04	PubChem
C1CCc2[nH]nnc2C1	1H-Benzotriazole, 4,5,6,7-tetrahydro-	0.705	eChemPortal
CN1CCC(O)CC1	4-Piperidinol, 1-methyl-	0.756	eChemPortal
COc1ccc2[nH]c(=S)[nH]c2c1	5-Methoxy-2-mercaptobenzimidazole	1.172	eChemPortal
Nc1ncnc2sccc12	thieno[2,3-d]pyrimidin-4-amine	0.96	OCHEM
Cc1cc(C)cc(N)c1	3,5-Dimethylaniline	1.83	OCHEM
CCN(CCNS(C)(=O)=O)c1ccc(N)c(C)c1	–	0.822	eChemPortal
Cc1ccc(S(=O)(=O)Oc2ccc(Nc3cc(S(=O)(=O)[O-])c(N)c4c3C(=O)c3ccccc3C4=O)cc2)cc1.[Na+]	–	0.1	eChemPortal
CCCCc1oc2ccc([N+](=O)[O-])cc2c1C(=O)c1ccc(O)cc1	–	3.72	eChemPortal
Nc1ncccc1O	2-Amino-3-hydroxypyridine	-0.25	eChemPortal
O=C(Nc1cccc2c(=O)c3c(ccc4c5cc(NC(=O)c6ccccc6)c6c(=O)c7ccccc7c(=O)c6c5[nH]c43)c(=O)c12)c1ccccc1	C.I. Vat brown 3	4.1	eChemPortal
CCCCC(CC)CNC(=O)c1ccc(N=Nc2c(C)c(C#N)c(=O)n(C)c2O)cc1 (stereo not given)	–	4.7	eChemPortal
CC(=O)OC[C@@H]1O[C@H](n2cc(C)c(=O)[nH]c2=O)C[C@H]1OC(C)=O	–	1	eChemPortal
Nc1c(/N=N/c2ccc(S(=O)(=O)CCOS(=O)(=O)[O-])cc2)cc(S(=O)(=O)[O-])c(N)c1/N=N/c1ccc(S(=O)(=O)CCOS(=O)(=O)[O-])cc1.[Na+].[Na+].[Na+]	–	-5.4	eChemPortal
C=CCOCC(CC)(CO)CO	2-Allyloxymethyl-2-ethylpropanediol	1.4	eChemPortal
COc1cc(NC(=O)CC(C)=O)c(OC)cc1Cl	4'-Chloro-2',5'-dimethoxyacetoacetanilide	1.74	eChemPortal
CCCCCCCCCCCCCCCCCCOC(=O)CCS	Propanoic acid, 3-mercapto-, octadecyl ester	3.9	eChemPortal
CC(C)C(=O)OCc1ccccc1	Benzyl 2-methylpropanoate	2.99	eChemPortal
OC[C@@H](O)[C@@H](O[C@H]1O[C@H](CO)[C@@H](O)[C@H](O)[C@H]1O)[C@H](O)[C@@H](O)CO	4-O-alpha-D-Glucopyranosyl-D-glucitol	-3.87	eChemPortal
CCCCCCCC1CCCC1=O (stereo not given)	2-Heptylcyclopentanone	3.8	eChemPortal
CCCCCCCCCCCCCCCCCCP(=O)(OC)OC	Dimethyl octadecylphosphonate	8.41	eChemPortal
N#CCCOCCN(CCC#N)c1ccc(N=Nc2ccc([N+](=O)[O-])cc2)cc1	C.I. Disperse Orange 80	0.952	eChemPortal
COc1cc(C#N)ccc1C=O	4-Formyl-3-methoxybenzonitrile	1.42	eChemPortal
COc1c(O)c(Br)cc(C=O)c1[N+](=O)[O-]	5-Bromo-2-nitrovanillin	1.88	OCHEM
CC(N)CN (stereo not given)	1,2-Diaminopropane	-1.8	PubChem, eChemPortal
CC[C@]12CC[C@@H]3c4ccc(OC)cc4CC[C@H]3[C@@H]1CC[C@@H]2O	18-Methylestradiol-3-methyl ether	5.24	eChemPortal
C=C(C)C(=O)OCCOCC	2-Ethoxyethyl methacrylate	1.8	eChemPortal
O=C1CC/C=C\CCCCCCCCCC1	(4Z)-Cyclopentadec-4-en-1-one	5.154	eChemPortal
O=c1nc(-c2cc(Cl)cc(Cl)c2O)[nH]c2ccccc12	2-(3,5-Dichloro-2-hydroxyphenyl)-4(1H)-quinazolinone	3.81	eChemPortal
CN1CCSC1=S	2-Thiazolidinethione, 3-methyl-	0.59	eChemPortal
CC(C)(CO)[C@@H](O)C(=O)NCCC(=O)O	Pantothenic acid	-1.69	OCHEM
Nc1ccc([N+](=O)[O-])c2ccccc12	1-Naphthylamine, 4-nitro-	1.77	OCHEM
C=C(C)CCO	3-Methylbut-3-en-1-ol	0.89	eChemPortal
COc1cc(NC(C)CCCN)c2ncccc2c1 (stereo not given)	Primaquine	2.1	PubChem
CCCCCCCCCCC=O	Undecanal	3.84	eChemPortal
CCC(F)(F)C(F)(F)C(F)(F)C(F)(F)C(F)(F)C(F)(F)F	1-(Perfluorohexyl)ethane	5.3	eChemPortal
CC(C)Sc1ncccc1CCC(F)(F)F	2-(Isopropylthio)-3-(2,2,2-trifluoroethoxy)pyridine	3.5	eChemPortal

The first 7 entries again:

{"smiles": "CC(=O)OCCN(CCOC(C)=O)c1ccc(N=Nc2sc([N+](=O)[O-])cc2[N+](=O)[O-])cc1", "logP": "4.2", "via": "eChemPortal"}
{"smiles": "C[C@@H]1C[C@@H](O)CC(C)(C)C1=O", "name": "Cyclohexanone, 4-hydroxy-2,2,6-trimethyl-, (4R,6R)-", "logP": "1.1", "via": "eChemPortal"}
{"smiles": "CC1C(C)(C)C2=C(C3OCOCC3CC2)C1(C)C", "stereo": "stereo not given", "logP": "4.29", "via": "eChemPortal"}
{"smiles": "OC(CCCN1CCCCC1)(c1ccccc1)c1ccccc1", "name": "Diphenidol", "logP": "4.3", "via": "PubChem"}
{"smiles": "CC(=O)OCC(=O)[C@H]1[C@H](C)C[C@H]2[C@@H]3C[C@H](F)C4=CC(=O)CC[C@]4(C)[C@H]3[C@@H](O)C[C@@]21C", "logP": "2.84", "via": "eChemPortal"}
{"smiles": "O=c1oc(-c2ccccc2NS(=O)(=O)c2ccc3ccccc3c2)nc2ccccc12", "logP": "4.49", "via": "eChemPortal"}
{"smiles": "CCc1cc(S(=O)(=O)[O-])c2cc(C(C)C)cccc1-2.[Na+]", "name": "Egualen sodium", "logP": "-0.74", "via": "OCHEM"}